Apparent affinities of Ab-14 variants for a coronavirus HR2 peptide

Target peptide (SARS-CoV-2 spike, HR2 region): PDVDLGDISGINAS

Each scFv is VH, a (GGGGS)3 linker, VL, as in the parent Ab-14, and differs from it in the CDRs of the light chain only.
VH: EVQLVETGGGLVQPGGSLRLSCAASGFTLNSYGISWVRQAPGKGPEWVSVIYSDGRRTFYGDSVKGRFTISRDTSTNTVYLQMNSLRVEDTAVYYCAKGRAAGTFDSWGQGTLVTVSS
VL: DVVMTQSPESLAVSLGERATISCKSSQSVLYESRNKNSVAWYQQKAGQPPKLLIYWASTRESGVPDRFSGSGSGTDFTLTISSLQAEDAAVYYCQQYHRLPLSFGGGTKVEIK

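The starting antibody came from a phage panning campaign against this peptide. Library AAYL50 holds single substitutions and randomly drawn double and triple substitutions in the CDRs. Affinity was read by AlphaSeq, a pooled yeast mating assay with surface-displayed partners. Mating (16 h, 30 °C) was followed by selection of diploids and sequencing of their barcodes. A regression on co-assayed BCL2-family reference pairs converts the normalised counts of each replicate to an apparent Kd. Mating was done three times.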

The parent's light chain CDRs are KSSQSVLYESRNKNSVA, WASTRES, QQYHRLPLS; each variant's own CDRs replace them letter for letter. Every variant below is changed at N35 of the VL (sequential numbering). Values are apparent Kd, the geometric mean of the replicates that gave a signal; lower means stronger binding. A pair that was not seen in any replicate is written "no signal"; this usually means weak binding, but a binder can also be missed. For reference, the parent read 4.4 nM as the reference entry and 48 nM as a member of this library.

The variant KSSWSVLYGSRIKNSVA | WASTRES | QQYHRLPLS showed 29 nM (3 of 3 replicates).
The variant KSSQSVLYEYRGKNSVA | WASTRED | QQYHRLPLS showed 1.8 µM (2 of 3 replicates).
The variant KSSQSVLYESRQKNSVA | WASTRES | QQYDRLPLS showed 50 nM (3 of 3 replicates).
The variant KSSPSVLYESRRKNSVA | WASTRAS | QQYHRLPLS showed 110 nM (3 of 3 replicates).
The variant KSSQSVLYESRFKNSVA | WASTPES | QQYHRLPQS showed 8.1 µM (3 of 3 replicates).
The variant KSSQSVLYESRCKNSVA | WASTRES | QQYMRLPHS showed 27 µM (2 of 3 replicates).
The variant KSSQSVLYESRWKNSVA | WASTRES | CQYHRLPLS showed no signal (0 of 3 replicates).
The variant KSSQSVLYESREKNSVH | WASTRES | QQYHRLPLA showed 180 µM (1 of 3 replicates).
The variant KQSQSVLYESRYKNSVA | WASTRES | HQYHRLPLS showed no signal (0 of 3 replicates).
The variant KSSQSVLYESSPKNSVA | WASTRES | QQYHRKPLS showed no signal (0 of 3 replicates).
The variant KSSQSVLYEIRTDNSVA | WASTRES | QQYHRLPLS showed no signal (0 of 3 replicates).
The variant ESSQSVLYESRIKNSVA | WLSTRES | QQYHRLPLS showed 31 µM (1 of 3 replicates).
The variant CSSQSVLYESRGCNSVA | WASTRES | QQYHRLPLS showed 290 nM (3 of 3 replicates).
The variant KSSQGVLYESREKNSVA | WASTRES | QQYRRLPLS showed 1.5 µM (3 of 3 replicates).
The variant KSSQSVLYESRDKNKVA | WASTRES | QQYHRAPLS showed no signal (0 of 3 replicates).
The variant KSSQSVLYESRDKNSVA | WASTRES | QQHHRLPIS showed 190 nM (1 of 3 replicates).
The variant KSSTSVLYESRTKNSVA | WASTRES | QQYHRLPLS showed 250 nM (3 of 3 replicates).
The variant KSSQSVLYERRDKNSVA | WASTRES | QQYHRLPLN showed 3.1 µM (3 of 3 replicates).
The variant KISQSVLYNSRTKNSVA | WASTRES | QQYHRLPLS showed 460 pM (3 of 3 replicates).
The variant ISSQSVLYESRPKNSVA | WASTRES | QQYHELPLS showed 250 nM (3 of 3 replicates).
The variant KSSQSVLYESRTKNSFA | WASTRES | QQYHRLPLN showed 610 µM (1 of 3 replicates).
The variant KSSQSVLYESRHKNSVA | WASTRES | NQYNRLPLS showed 58 nM (3 of 3 replicates).
The variant KSSQSVLYESRQVNSVA | WASTRES | QQYQRLPLS showed 120 nM (3 of 3 replicates).
The variant KSSQSVLYESRHVNSVA | WAKTRES | QQYHRLPLS showed 32 nM (3 of 3 replicates).
The variant KSSMSVLYESRDKNSVA | WASTRES | QQYHRKPLS showed no signal (0 of 3 replicates).
The variant KSSQWVLYESRYSNSVA | WASTRES | QQYHRLPLS showed 15 nM (3 of 3 replicates).
The variant KSSQSVLYESRDKNSVA | WASTRES | FQYNRLPLS showed no signal (0 of 3 replicates).
The variant KSSQSVLYESRWKHSVA | WASTRES | QQYARLPLS showed 580 nM (3 of 3 replicates).
The variant KSSASVLYISRPKNSVA | WASTRES | QQYHRLPLS showed 7.7 µM (3 of 3 replicates).
The variant KSSQSVLYESRHKNYVA | WASTRES | QQYHRLPLS showed 41 µM (2 of 3 replicates).
The variant KSSQSTLYESRMKNSVA | WASTRES | QQYHRLPLS showed 14 nM (3 of 3 replicates).
The variant KFSQSVLKESRLKNSVA | WASTRES | QQYHRLPLS showed 990 pM (3 of 3 replicates).
The variant KSSQSVLYTSRIKNSVA | WASWRES | QQYHRLPLS showed 2.4 µM (3 of 3 replicates).
The variant LSSQSVLYESRLKNSVA | WASTRES | QQYHRLPLF showed 2.0 µM (1 of 3 replicates).
The variant KSSQVFLYESRVKNSVA | WASTRES | QQYHRLPLS showed 42 nM (3 of 3 replicates).
The variant KSSQSVLYESREKNSVA | WASTRES | QSYHRLWLS showed no signal (0 of 3 replicates).
The variant KSSQSVLYESRLKNSVA | WASTRES | QQYHRLPLS showed 10 nM (3 of 3 replicates).
The variant KSSQSHLYESRQKNSYA | WASTRES | QQYHRLPLS showed no signal (0 of 3 replicates).
The variant KSSQSVNYESRHKNSVA | WAVTRES | QQYHRLPLS showed 120 nM (3 of 3 replicates).
The variant KSSQSVLSESRKKNSVA | MASTRES | QQYHRLPLS showed 64 nM (3 of 3 replicates).
The variant KSSQSVLYESRTKNSVA | WCSTRES | QQYRRLPLS showed 18 µM (3 of 3 replicates).
The variant KSSQSVLYESRKKNSVA | WASCRES | QQYHLLPLS showed 70 nM (3 of 3 replicates).

The opening 7 entries, copied out:

CDR-L1,CDR-L2,CDR-L3,Kd,detected
KSSWSVLYGSRIKNSVA,WASTRES,QQYHRLPLS,29 nM,3/3
KSSQSVLYEYRGKNSVA,WASTRED,QQYHRLPLS,1.8 µM,2/3
KSSQSVLYESRQKNSVA,WASTRES,QQYDRLPLS,50 nM,3/3
KSSPSVLYESRRKNSVA,WASTRAS,QQYHRLPLS,110 nM,3/3
KSSQSVLYESRFKNSVA,WASTPES,QQYHRLPQS,8.1 µM,3/3
KSSQSVLYESRCKNSVA,WASTRES,QQYMRLPHS,27 µM,2/3
KSSQSVLYESRWKNSVA,WASTRES,CQYHRLPLS,no signal,0/3

As a blank, each scFv also met three strains without target: over library AAYL50, 18% of these pairings were detected, typically at 15 µM and seldom below 970 nM.

Source: Engelhart et al. 2022 (doi:10.1038/s41597-022-01779-4), MIT Lincoln Laboratory and A-Alpha Bio; data file from the FLAb repository.